Reference: ChEMBL document CHEMBL4765437, “Design, synthesis and biological evaluation of pyrazolo[3,4-d]pyrimidine-based protein kinase D inhibitors” (Eur J Med Chem, 2020)

Biological target: T1, Serine/threonine-protein kinase D3 (Homo sapiens, UniProt O94806)
T1 sequence (O94806 whole entry): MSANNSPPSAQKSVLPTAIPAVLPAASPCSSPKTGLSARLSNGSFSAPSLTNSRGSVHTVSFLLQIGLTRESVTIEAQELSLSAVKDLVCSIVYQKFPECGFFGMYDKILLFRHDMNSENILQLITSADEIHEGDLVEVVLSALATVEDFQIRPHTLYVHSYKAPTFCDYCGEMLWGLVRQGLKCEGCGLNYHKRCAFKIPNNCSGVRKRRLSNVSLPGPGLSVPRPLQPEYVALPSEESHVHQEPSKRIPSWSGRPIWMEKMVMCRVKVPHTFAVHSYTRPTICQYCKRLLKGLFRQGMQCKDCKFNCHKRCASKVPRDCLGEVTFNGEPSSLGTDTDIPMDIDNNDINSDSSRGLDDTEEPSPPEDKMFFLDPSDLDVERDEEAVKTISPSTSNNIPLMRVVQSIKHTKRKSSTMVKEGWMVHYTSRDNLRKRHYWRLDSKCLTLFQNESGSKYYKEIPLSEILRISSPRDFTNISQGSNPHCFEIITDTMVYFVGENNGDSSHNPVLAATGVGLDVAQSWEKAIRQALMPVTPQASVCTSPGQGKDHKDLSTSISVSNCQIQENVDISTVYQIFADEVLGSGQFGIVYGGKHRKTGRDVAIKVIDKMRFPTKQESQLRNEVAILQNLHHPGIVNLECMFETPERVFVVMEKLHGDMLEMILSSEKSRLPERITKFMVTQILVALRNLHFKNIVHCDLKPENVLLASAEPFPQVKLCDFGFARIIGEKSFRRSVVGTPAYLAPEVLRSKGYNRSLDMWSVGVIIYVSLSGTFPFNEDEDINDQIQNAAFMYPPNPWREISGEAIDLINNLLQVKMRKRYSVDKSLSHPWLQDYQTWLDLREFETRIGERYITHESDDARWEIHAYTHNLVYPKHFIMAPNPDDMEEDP
Test: Inhibition of recombinant FLAG-tagged PKD3 (unknown origin) expressed in HEK293T cells using Syntide-2 as substrate measured after 15 mins by ADP-Glo assay

SMILES: CC[C@@H](N)CNc1ccnc(-c2cc(-c3cnn(C)c3)ccc2O)n1
- IC50: 6 nM
